In PubChem BioAssay AID651725 (National Center for Advancing Translational Sciences (NCATS), 2012):
The list shows a part of the results, in another mix than the full data. Active and inactive are the calls of the source. Cut-off read from the data, not from the text of the source: active = activity change below about -65%; inconclusive = mostly about -30% to -63%; inactive = weaker than that.

The chains behind the UniProt entries cited, without tags or fusion partners.
UniProt Q15475, whole entry: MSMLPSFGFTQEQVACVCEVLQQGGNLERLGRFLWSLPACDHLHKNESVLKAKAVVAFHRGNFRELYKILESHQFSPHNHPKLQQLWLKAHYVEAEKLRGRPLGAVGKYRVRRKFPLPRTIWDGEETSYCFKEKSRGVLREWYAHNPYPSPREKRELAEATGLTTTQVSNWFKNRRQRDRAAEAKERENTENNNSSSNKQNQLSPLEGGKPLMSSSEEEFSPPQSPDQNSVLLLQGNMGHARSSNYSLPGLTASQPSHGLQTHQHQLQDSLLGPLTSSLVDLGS

These compounds were tested against Homeobox protein SIX1 (Homo sapiens) + Protein phosphatase EYA2 (Homo sapiens) (UniProt Q15475+O00167) (assay: qHTS Assay for Inhibitors of the Six1/Eya2 Interaction). Conditions: AlphaScreen GST-Six1/His-Eya2 binding, biochemical; stronger effect = lower value.
How it was run: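 AlphaScreen with GST-Six1 and His-Eya2 (5X mix: 250 nM and 500 nM), glutathione donor and nickel acceptor beads; buffer 50 mM Tris pH 8.0, 300 mM NaCl, 1 mM TCEP; 1 h at 37 C in the dark.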
% is set by controls: 0 for no effect and ±100 for the full control effect.

Compound	activity change
Cc1ccc(C)c(NP(C)(=O)Oc2ccccc2)c1 (configuration not stated)	inactive: 5.61%
CCCOP(=S)(Nc1nc(N)cc(=O)[nH]1)OCCC	inactive: 2.57%
Nc1cccc2c([As](=O)(O)O)cccc12	inactive: 4.92%
Cc1cc(C)cc(OP(C)(=O)Nc2ccccn2)c1 (configuration not stated)	inactive: 3.8%
CP(=O)(Nc1cccc(Br)c1)Oc1ccccc1 (configuration not stated)	inactive: -4.17%
CCOP(=O)(Nc1cccc2ccccc12)OCC	inactive: 2.67%
CCOP(=O)(Nc1ccc(C)cn1)OCC	inactive: -0.934%
CN(CCCl)Cc1cc(Cl)c(NC2=NCCN2)c(Cl)c1	inactive: 9.74%
O=[N+]([O-])c1cc([N+](=O)[O-])c(-n2nnc3ccccc32)c([N+](=O)[O-])c1	inactive: -4.51%
CCOP(=O)(NC(=NC(C)c1ccccc1)NC(C)c1ccccc1)OCC (configuration not stated)	inactive: 2.88%
O=P1(Nc2ccccn2)COc2ccccc2OC1	inactive: 11.7%
CCC1=CC2Cc3nc4ccc(Cl)cc4c(N)c3C(C1)C2 (configuration not stated)	inactive: -10%
O=C(O)C(O)c1ccc(N(CCCl)CCCl)cc1.c1ccncc1 (configuration not stated)	inactive: 0.777%
CC(C)(C)C(=O)NC(Sc1ncccn1)C(Cl)(Cl)Cl (configuration not stated)	inactive: 2.38%
O=P1(N(CCCl)CCCl)NCCC(C(F)(F)F)O1 (configuration not stated)	inactive: -1.68%
Clc1n[nH]nc1-c1nn[nH][15n]1	inactive: -8.37%
CN(Cc1cccnc1)C(=O)COc1ccc(Cl)c(Cl)c1.O=[N+]([O-])c1cc([N+](=O)[O-])c(O)c([N+](=O)[O-])c1	inactive: -12.1%
COc1ccccc1CNC(=O)COC(=O)C(O)(c1ccccc1)c1ccccc1	inactive: 1.74%
CC1(CBr)Cn2c(nc3ccccc3c2=O)S1 (configuration not stated)	inactive: 14.8%
Cc1nc2ccc3ccccc3c2s1.O=[N+]([O-])c1cc([N+](=O)[O-])c(O)c([N+](=O)[O-])c1	inactive: -0.168%
Cc1ccc(S(=O)(=O)N(CCCN)CCCc2c(C)nc(N)[nH]c2=O)cc1.O=[N+]([O-])c1cc([N+](=O)[O-])c(O)c([N+](=O)[O-])c1	inactive: -6.39%

Compound	activity change
CC(C)/C=N\N=C(\N)N[N+](=O)[O-]	inactive: 0%
CN(C(=O)Cc1ccc(Cl)c(Cl)c1)[C@@H]1CCCC[C@H]1N1CCCC1	inactive: -8.07%
COc1cc(C2NCCC3(OCCO3)C2(C)C)cc(OC)c1OC.O=[N+]([O-])c1cc([N+](=O)[O-])c(O)c([N+](=O)[O-])c1 (configuration not stated)	inactive: -0.141%
CC1CCC(C(C)C)C(OP(=O)(Nc2ccccn2)c2ccccc2)C1 (configuration not stated)	inactive: 0.3%
Cc1ccc(C(=O)OC2CN3CCC2CC3)cc1 (configuration not stated)	inactive: -0.245%
Cc1nn(-c2ccccc2)c2c1P(=O)(N1CCOCC1)N(C)C(c1ccccc1)=N2 (configuration not stated)	inactive: 3.14%
CCCC1OP(=O)(Nc2ccccc2)OCC1CC (configuration not stated)	inactive: 5.9%
O=C(/C=C/c1ccccc1)OC1CN2CCC1CC2 (configuration not stated)	inactive: 24.4%
CN(C)C1(CNC(=O)c2ccc(S(C)(=O)=O)cc2)CCCCC1	inactive: 1.54%
CC1=C2N=C(C=C3N=C(C(C)=C4[N-][C@@](C)([C@@H]5N=C1[C@](C)(CCC(=O)NC[C@@H](C)OP(=O)([O-])O[C@H]1[C@@H](O)[C@@H](n6cnc7cc(C)c(C)cc76)O[C@@H]1CO)[C@H]5CC(N)=O)[C@@](C)(CC(N)=O)[C@@H]4CCC(N)=O)[C@@](C)(CC(N)=O)[C@@H]3CCC(N)=O)C(C)(C)[C@@H]2CCC(N)=O.[C-]#N.[Co+3]	inactive: 1.86%
O=[N+]([O-])c1cc([N+](=O)[O-])c(Nc2nnnn2CCO)c([N+](=O)[O-])c1	inactive: -23.6%
COc1ccccc1OP(C)(=O)Nc1c(C)cccc1C (configuration not stated)	inactive: -2.01%
CN1CCCCC1COC(=O)C1(O)c2ccccc2CCc2ccccc21 (configuration not stated)	inactive: -5.78%
O=P1(Nc2ncccn2)COc2ccccc2OC1	inactive: -2.73%
Cc1ccc(OCC(=O)OC2CN3CCC2CC3)cc1 (configuration not stated)	inactive: -2.37%
O=[As](O)(c1cccs1)c1cccs1	inactive: -0.747%
O=P1(Nc2ccc(Br)cn2)COc2ccccc2OC1	inactive: 5.1%
NS(=O)(=O)c1cccc(NC(=O)COC(=O)C(O)(c2ccccc2)c2ccccc2)c1	inactive: 10.6%
CCCOc1ccc(NP(C)(=O)Oc2ccc(Cl)cc2)cc1 (configuration not stated)	inactive: 6.97%
Nc1cccc([As](=O)(O)c2ccccc2)c1	inactive: 4.91%
CP(=O)(Nc1ccc(SC(F)(F)F)cc1)Oc1ccccc1 (configuration not stated)	inactive: 0.225%
